System: patients with a single variant in the ChAT gene (340L>F or 510R>Q)
Test: Treatment with an AChE inhibitor of patients carrying a ChAT gene variant
Format: in vivo, human

With `COc1cc2c(cc1OC)C(=O)C(CC1CCN(Cc3ccccc3)CC1)C2` (centres unmarked) [Aricept] the cognitive decline (second treated patient) was “reversal of cognitive decline” and the “clinical benefit of treatment” value (two patients with ChAT variant, anecdotal) was “substantial anecdotal benefit”.

Reference: patent US20160051527A1, “METHODS AND KITS FOR TREATING AND CLASSIFYING INDIVIDUALS AT RISK OF OR SUFFERING FROM A NEUROLOGICAL DYSFUNCTION OR DISORDER” (priority 2013, published 2016)
